Experimental data reported in patent US20080241919A1, “Defined media for pluripotent stem cell culture” (The Burnham Institute of Medical Research, priority 2003, published 2008).

System: human embryonic stem cells (hESCs)
Assay: Other growth factors in place of bFGF for undifferentiated growth of hESCs
Assay type: cell-based
Settings: feeder- and serum-free conditions
Protocol: All the growth factors were dissolved in a PBS buffer that contained 0.5% BSA, 1 mM DTT (Dithiothreitol) and 10% glyceral as a 10 μg/ml (500×) stock solution and stored in aliquots at −80° C. These factors were added individually to the hESC cultures at a concentration of 20 ng/ml, in the absence of bFGF or in the presence of a low concentration of bFGF (4 ng/ml). Seven days after seeding undifferentiated hESCs on laminin/collagen-coated plates, the cultures were examined.

B1: BMP-2: bone morphogenic protein 2 (protein, UniProt P12643 283-396, looked up)
Bone morphogenetic protein 2: QAKHKQRKRLKSSCKRHPLYVDFSDVGWNDWIVAPPGYHAFYCHGECPFPLADHLNSTNHAIVQTLVNSVNSKIPKACCVPTELSAISMLYLDENEKVVLKNYQDMVVEGCGCR
  ability to replace bFGF in supporting undifferentiated growth of hESCs: can not replace bFGF
